Values quoted from earlier work in US20230201290A1, “TGF-BETA INHIBITION, AGENTS AND COMPOSITION THEREFOR” (GMP BIOTECHNOLOGY LIMITED, priority 2020, published 2023).

What was measured:
falciparum malaria = settings: 1975, 3-day regimens: artemisinin tablets 2.5 g, chloroquine 1.5 g base; cited from earlier work
vivax malaria = settings: 1975: artemisinin tablets total 3 g; chloroquine total 1.5 g base; cited from earlier work

**Q.** Which results are given for `CCN(CC)CCCC(C)Nc1ccnc2cc(Cl)ccc12` (centres unmarked) [chloroquine]?
**A.** Average asexual parasite clearance time (falciparum malaria): 65.7 ± 29.9 h; parasite clearance time (vivax malaria): 55.9 ± 16.6 h
